The results in this text go back to patent publication EP1534672B1, “RETINOL DERIVATIVES, THEIR USE IN THE TREATMENT OF CANCER AND FOR POTENTIATING THE EFFICACY OF OTHER CYTOTOXIC AGENTS” (priority 2002, dated 2004).

The test system of the assay is Human Breast Adenocarcinoma Cell Line MDA-MB-231. Description: Drug cytotoxicity testing (viable cell count, trypan blue exclusion, cell growth inhibition). Type of assay: cell-based. As for the experimental part:
MDA-MB-231 cells were propagated in MEM culture medium with 2 mM L-glutamine, 10% heat-inactivated fetal bovine serum (FBS) and antibiotics. DU 145 cells were cultured in MEM culture medium containing 2 mM L-glutamine, 1 mM sodium pyruvate, 10% FBS and antibiotics. SKOV-3 cells were cultured in McCoy's 5A culture medium, supplemented with 1,5 mM L-glutamine, 10% FBS and antibiotics. A549 cells were cultured in Ham's F-12 culture medium with 1 mM L-glutamine, 10% FBS and antibiotics. All media and supplements were purchased from Sigma-Aldrich (St.Louis, MO, USA). Cell propagation of all lines was carried out in Falcon™ 25 cm^2 cultivation flasks (Becton Dickinson Labware).
Drug cytotoxicity testing was carried out with using Falcon™ 96-well cultivation plates for adherent cells (Becton Dickinson Labware). These plates were seeded by cells either at 12 × 10^3 MDA-MB-231 cells/well, or at 12 × 10^3 DU 145 cells/well, or at 14 × 10^3 SKOV-3 cells/well, or at 10 × 10^3 A549 cells/well in a volume of 200 µL/well.
The cell cultures in cultivation plates were allowed to adhere for 24 hour of incubation. On day 1 after cell seeding, 2 µL solutions of the drugs to be tested in medium with 5% FBS was added to the cultures. In the control cultures, 2 µL of medium with 5% FBS was added as solvent control. The cells were incubated for 2 consecutive days. At the end of the incubation period adherent cells were detached by trypsinization and the number of viable cells was counted using trypan blue exclusion test and a hemocytometer. All data were derived from an average of three determinations each in six replicates. The results were expressed as mean cell number ± SE and the differences between control and test series evaluated by means of Student's t-test. The drug cytotoxicity was evaluated based on the extent of cell growth inhibition. The cell growth inhibition of the tested drugs was calculated as follows: Cell growth inhibition,% = (Control-TestSeries)/(Control) × 100 [formula]
In the case of comparative evaluation of cytotoxicity of the inventive compounds themselves and the formulation related to consecutive dilutions of their initial solutions before adding to the cultures, 2 µL solutions of the drugs to be tested in medium with 5% FBS, in normal saline and in saline with 2,3 mM CaCl2 were added to the cultures. In control cultures, 2 µL of medium with 5% FBS, normal saline and saline with 2,3 mM CaCl2 were added as solvent controls (negative controls). […] Therefore an average of negative controls was calculated. […] Therefore an average of positive controls was calculated (for each antibiotic).

Where [1] appears, read: MDA-MB-231, 48 h, compound alone, final concentration 10^-7 mol/L, working solutions in MEM with 5% FBS, two days.
[2] abbreviates: MDA-MB-231, compound alone 10^-7 mol/L, in A (saline with […] CaCl2).

SMILES strings stand for the structures.

Broadly, the inhibition is the drop in the measured response relative to a control, in per cent. A high value points to a response far below the control. `CC1=C(/C=C/C(C)=C/C=C/C(C)=C/C(=O)N[C@@H](CS(=O)(=O)O)C(=O)OC(C)C)C(C)(C)CCC1` [compound I-1c, N-(all-trans-retinoyl)-Lwcysteic acid isopropyl ester] registered an inhibition at 0.1 µM under setting [1] of 49.5%. On to `CNC(=O)[C@H](CS(=O)(=O)O)NC(=O)/C=C(C)/C=C/C=C(C)/C=C/C1=C(C)CCCC1(C)C` [compound I-1g, N-(all-trans-retinoyl)-L-cysteic acid methylamide], for which the inhibition at 0.1 µM is, setting by setting: under setting [1], 43.2%; under setting [2], 43.2%. Compound `CCCCOC(=O)[C@H](CS(=O)(=O)O)NC(=O)\C=C(C)/C=C/C=C(C)/C=C/C1=C(C)CCCC1(C)C` [compound II-1e, N-(13-cis-retinoyl)-L-cysteic acid butyl ester] displayed an inhibition at 0.1 µM under setting [1] of 54.2%.

As for `CC1=C(/C=C/C(C)=C/C=C/C(C)=C\C(=O)N[C@@H](CS(=O)(=O)O)C(N)=O)C(C)(C)CCC1` [compound II-1f, N-(13-cis-retinoyl)-L-cysteic acid amide], the inhibition at 0.1 µM under setting [2] worked out at 54.2%.
